US12729404B2, “Method and kit for testing drug hypersensitivity reactions caused by sulfonamide derivative-based antiepileptic drug and use of the kit” (CHANG GUNG MEMORIAL HOSPITAL, LINKOU, priority 2020, dated 2026)

Tested on: HLA-B*13:01 and (HLA-B*51:01 or HLA-B*51:02)
Assay: Association of the combination of HLA-B*13:01 and (HLA-B*51:01 or HLA-B*51:02) with zonisamide-induced severe cutaneous adverse reactions (SCAR), cases vs general population

In the case of `NS(=O)(=O)Cc1noc2ccccc12` [zonisamide], the OR (SCAR cases vs 2038 healthy controls) was 46.2, the “Cases (%) carrying the allele” value (zonisamide-SCAR cases) was “(100%)” and the “Cases N (allele carriers / patients)” value (zonisamide-SCAR cases) was 7/7.
